# The entries are a selection whose mix differs from that of the whole data set. Calls of active or inactive are those of the source. The call rests on the fitted dose curve; in most records, active means well fitted inhibition curve with a large enough effect; inconclusive means small, poorly fitted or top-dose-only effect; inactive means no such curve, though single readings can be large or run the other way.
# By UniProt entry, the sequences of proteins in these tests, tags left out.
# UniProt O75874, whole entry R132H: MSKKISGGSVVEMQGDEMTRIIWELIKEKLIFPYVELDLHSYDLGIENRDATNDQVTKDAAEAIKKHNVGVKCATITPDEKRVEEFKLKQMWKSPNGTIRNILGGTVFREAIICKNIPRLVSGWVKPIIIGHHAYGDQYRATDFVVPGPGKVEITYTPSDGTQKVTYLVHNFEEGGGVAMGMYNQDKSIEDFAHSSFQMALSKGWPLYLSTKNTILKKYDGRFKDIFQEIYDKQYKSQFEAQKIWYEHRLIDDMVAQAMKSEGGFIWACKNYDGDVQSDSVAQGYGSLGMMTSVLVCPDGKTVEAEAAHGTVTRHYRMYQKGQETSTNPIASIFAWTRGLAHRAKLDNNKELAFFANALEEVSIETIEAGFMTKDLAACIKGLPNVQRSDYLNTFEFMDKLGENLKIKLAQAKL
# Biological target: Isocitrate dehydrogenase [NADP] cytoplasmic (Homo sapiens) (UniProt O75874)
# Experiment: qHTS for Inhibitors of mutant isocitrate dehydrogenase 1 (IDH1): qHTS; further: nearly all actives have a fitted effect of over 65% in size
# Details: IDH1-R132H enzyme, NADPH consumption, diaphorase/resazurin fluorescence; at 76.6 µM (top of the series)
# From the text: Unbiased genomic sequencing for 22 glioma genomes found recurrent mutation of isocitrate dehydrogenase 1 (IDH1) on chromosome 2q33-a gene encoding the cytosolic isoform of IIDH1associated with the tricarboxylic acid cycle (TCA) that catalyzes the oxidative decarboxylation of isocitrate, yielding alpha-ketoglutarate and CO2 via NADP+ to NADPH conversion. Subsequent studies confirmed the recurrent IDH mutations in up to 70% of secondary gliomas and in 10% of AML cases. […] This in effect defines IDH1 as an oncogene, and provides an extraordinary opportunity to discover chemical probes against mutant IDH1 that may translate into much needed new therapies for glioma and AML patients. […] NIH Chemical Genomics Center [NCGC] NIH Molecular Libraries Probe Centers Network [MLPCN] […]
# IDH1-R132H (0.5 ug/mL) was dispensed into black, solid-bottom 1536-well plates at 3 uL/well in 20 mM Tris-HCl (pH 7.5), 150 mM NaCl, 10 mM MgCl2, 4 mM beta-ME, and 0.05% protease-free BSA. […] A pre-read was run on the Viewlux to identify fluorescent compounds (540 nm excitation filter, 598 nm emission filter, bodipy mirror and 2 second exposure). […] The plates were measured on an Envision plate reader for fluorescence signal using a 540 nm excitation filter and 590 nm emission filter with 10 flashes. […] Concentration-response curves were fitted to the signals arising from the resulting fluorescence. […]
# On the % scale 0 is the no-effect control and ±100 the full control effect.
row,SMILES,"activity change, negative = inhibition"
1,CCC(=O)N(c1ccccc1)C1(COC)CCN(CCc2cccs2)CC1,inactive: -16.9%
2,CCC(=O)N(c1ccccc1)C1(COC)CCN(CCn2nnn(CC)c2=O)CC1,inactive: -5.64%
